Results taken from ChEMBL document CHEMBL1132147, “2-(2-Phenylcyclopropyl)imidazolines: reversed enantioselective interaction at I(1) and I(2) imidazoline receptors” (J Med Chem, 1999).

How the values were obtained:
[1] = Relative binding to I2 imidazoline and alpha-2 adrenergic receptors […]
[2] = Relative binding to I2 and I1 imidazoline receptors […]

| Compound | Ratio [1] | Ratio [2] |
| --- | --- | --- |
| c1ccc(C2CC2C2=NCCN2)cc1 (racemic) | 17 | 0.8 |
| c1ccc([C@H]2C[C@@H]2C2=NCCN2)cc1 | 2 | 0.1 |
| c1ccc([C@@H]2C[C@H]2C2=NCCN2)cc1 | 20 | 58 |
